Test system: HEL cells
Experiment: Apoptosis induction, annexin-V/PI flow cytometry
Type: cell-based, human
Details: 24 h

**Q.** How did the “concentration at which apoptosis induction starts” value turn out when `O=C(CCCCCCC(=O)Nc1ccccc1)NO` [SAHA, reference compound] was run?
**A.** Its value is “approximately 400 nM”.

Source: publication PMC11156613 (Journal of Advanced Research, 2023)
